Assay results reported in article PMC7824787, “Design, Synthesis and In Vitro Investigation of Novel Basic Celastrol Carboxamides as Bio-Inspired Leishmanicidal Agents Endowed with Inhibitory Activity against Leishmania Hsp90” (Biomolecules, 2021).

What follows are compounds tested on L. infantum amastigotes (assay: Antileishmanial activity on intramacrophage amastigotes of L. infantum). Conditions: ratio IC50 on THP-1 cell line / IC50 toward L. infantum amastigotes.
Format: cell-based, Leishmania infantum
Description: Cell monolayers were then washed and incubated in the presence of test compounds for 72 h. Slides were fixed with methanol and stained with Giemsa. The percentage of infected macrophages in treated and non-treated cells was determined by light microscopy.

Point of comparison: `CC1=C(O)C(=O)C=C2C1=CC=C1[C@@]2(C)CC[C@@]2(C)[C@@H]3C[C@](C)(C(=O)NCCNc4ccnc5cc(Cl)ccc45)CC[C@]3(C)CC[C@]12C` [compound 6, (2R,4aS,6aS,12bR,14aS,14bR)-N-(2-((7-chloroquinolin-4-yl)amino)ethyl)-10-hydroxy-2,4a,6a,9,12b,14a-hexamethyl-11-oxo-1,2,3,4,4a,5,6,6a,11,12b,13,14,14a,14b-tetradecahydropicene-2-carboxamide], “S.I. (selectivity index)” value 1.3. Against it:
- CC1=C(O)C(=O)C=C2C1=CC=C1[C@@]2(C)CC[C@@]2(C)[C@@H]3C[C@](C)(C(=O)NCCN4CCCC4)CC[C@]3(C)CC[C@]12C [compound 3, (2R,4aS,6aS,12bR,14aS,14bR)-10-hydroxy-2,4a,6a,9,12b,14a-hexamethyl-11-oxo-N-(2-(pyrrolidin-1-yl)ethyl)-1,2,3,4,4a,5,6,6a,11,12b,13,14,14a,14b-tetradecahydropicene-2-carboxamide] — higher, 21
- CC1=C(O)C(=O)C=C2C1=CC=C1[C@@]2(C)CC[C@@]2(C)[C@@H]3C[C@](C)(C(=O)NCC45CCCN4CCC5)CC[C@]3(C)CC[C@]12C [compound 5, (2R,4aS,6aS,12bR,14aS,14bR)-N-((hexahydro-1H-pyrrolizin-7a-yl)methyl)-10-hydroxy-2,4a,6a,9,12b,14a-hexamethyl-11-oxo-1,2,3,4,4a,5,6,6a,11,12b,13,14,14a,14b-tetradecahydropicene-2-carboxamide] — higher, 3.6
- CC1=C(O)C(=O)C=C2C1=CC=C1[C@@]2(C)CC[C@@]2(C)[C@@H]3C[C@](C)(C(=O)NCCN4CCCCC4)CC[C@]3(C)CC[C@]12C [compound 1, (2R,4aS,6aS,12bR,14aS,14bR)-10-hydroxy-2,4a,6a,9,12b,14a-hexamethyl-11-oxo-N-(2-(piperidin-1-yl)ethyl)-1,2,3,4,4a,5,6,6a,11,12b,13,14,14a,14b-tetradecahydropicene-2-carboxamide] — higher, 11
